This is a selection; strong and weak results do not stand in their true shares. Some results for these compounds are left out of this collection, so the calls shown say nothing about other tests. Active and inactive are the calls of the source.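 The calls were made as follows: active = inhibition above 3 SD of the buffer control wells (cut at about 41% in these data); inactive = the rest.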
Test: reduced carbachol calcium response, RGS4-induced M3R cells, confirmation, RGS4 activator project, cell-based, HEK293 M3R/RGS4 inducible, calcium flux, duplicate (AID 602282);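 also: signal is the integrated peak-minus-minimum Fluo4 fluorescence over baseline ratio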
Conditions: carbachol calcium flux Fluo4, at 10 µM, hits give high values

SMILES | inhibition
CN(C)C1CCCC1OC(=O)C(O)(c1ccccc1)c1ccccc1 (stereo not drawn) | active: 90.5%
C=CCN1CCN(CCOC(=O)C(O)(c2ccccc2)c2ccccc2)CC1 | active: 92%
CCN(CC)CC(C)C(C)OC(=O)C(O)(c1ccccc1)c1ccccc1 (stereo not drawn) | active: 90.5%

From PubChem BioAssay AID602282 (Johns Hopkins Ion Channel Center, 2012)
